Activity data for one compound are collected here from ChEMBL document CHEMBL5055662, “Characterization of an aromatic trifluoromethyl ketone as a new warhead for covalently reversible kinase inhibitor design” (Bioorg Med Chem, 2021).

The chains behind the UniProt entries cited, without tags or fusion partners.
UniProt P22455, whole entry, looked up: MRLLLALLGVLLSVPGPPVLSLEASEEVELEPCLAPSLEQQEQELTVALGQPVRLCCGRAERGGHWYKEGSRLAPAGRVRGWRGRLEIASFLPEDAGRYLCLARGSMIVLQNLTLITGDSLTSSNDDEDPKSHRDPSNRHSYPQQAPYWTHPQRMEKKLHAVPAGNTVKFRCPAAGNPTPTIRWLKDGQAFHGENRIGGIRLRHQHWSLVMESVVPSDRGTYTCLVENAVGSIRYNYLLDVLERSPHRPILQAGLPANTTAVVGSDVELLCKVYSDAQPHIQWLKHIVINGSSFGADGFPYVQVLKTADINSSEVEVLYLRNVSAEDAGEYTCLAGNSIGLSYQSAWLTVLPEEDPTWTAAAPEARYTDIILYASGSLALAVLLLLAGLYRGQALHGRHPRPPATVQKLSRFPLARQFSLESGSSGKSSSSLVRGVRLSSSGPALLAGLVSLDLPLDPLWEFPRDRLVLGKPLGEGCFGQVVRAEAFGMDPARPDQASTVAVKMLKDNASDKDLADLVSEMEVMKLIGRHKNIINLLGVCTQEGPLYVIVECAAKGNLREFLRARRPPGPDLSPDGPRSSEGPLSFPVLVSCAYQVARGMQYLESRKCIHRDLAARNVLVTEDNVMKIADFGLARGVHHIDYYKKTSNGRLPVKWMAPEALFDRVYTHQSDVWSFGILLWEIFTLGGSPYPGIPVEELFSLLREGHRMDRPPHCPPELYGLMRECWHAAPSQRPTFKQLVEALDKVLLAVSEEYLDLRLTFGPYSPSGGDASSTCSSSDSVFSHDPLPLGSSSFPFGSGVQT

The target in this test is Fibroblast growth factor receptor 4 (Homo sapiens) (UniProt P22455). The experiment in a line: Reversible covalent binding affinity to recombinant His-tagged human FGFR4 expressed in baculovirus expression system assessed as recovery of kinase activity preincubated for 120 mins followed by dialysis of protein for 4 days by MALDI-TOF MS analysis relative to control. As to conditions: time 5880.0 min.

For the compound `COCCNc1cc(NC(=O)N2CCCc3cc(CN4CCN(C)CC4=O)c(C=O)nc32)ncc1C#N`, the Activity stood at 50%.
